Assay [1] has as its target Vascular endothelial growth factor receptor 2 (Homo sapiens, UniProt P35968). Briefly: Tested in vitro for inhibition of KDR-receptor tyrosine kinase.
Assay [2] addresses T1, Epidermal growth factor receptor (Homo sapiens, UniProt P00533). Briefly: Tested in vitro for inhibition of EGF-receptor tyrosine kinase.
The target of assay [3] is T1, Epidermal growth factor receptor. Briefly: Tested for inhibition of EGF-receptor tyrosine kinase in intact cells.

The chains behind the UniProt entries cited, without tags or fusion partners.
UniProt P35968, whole entry: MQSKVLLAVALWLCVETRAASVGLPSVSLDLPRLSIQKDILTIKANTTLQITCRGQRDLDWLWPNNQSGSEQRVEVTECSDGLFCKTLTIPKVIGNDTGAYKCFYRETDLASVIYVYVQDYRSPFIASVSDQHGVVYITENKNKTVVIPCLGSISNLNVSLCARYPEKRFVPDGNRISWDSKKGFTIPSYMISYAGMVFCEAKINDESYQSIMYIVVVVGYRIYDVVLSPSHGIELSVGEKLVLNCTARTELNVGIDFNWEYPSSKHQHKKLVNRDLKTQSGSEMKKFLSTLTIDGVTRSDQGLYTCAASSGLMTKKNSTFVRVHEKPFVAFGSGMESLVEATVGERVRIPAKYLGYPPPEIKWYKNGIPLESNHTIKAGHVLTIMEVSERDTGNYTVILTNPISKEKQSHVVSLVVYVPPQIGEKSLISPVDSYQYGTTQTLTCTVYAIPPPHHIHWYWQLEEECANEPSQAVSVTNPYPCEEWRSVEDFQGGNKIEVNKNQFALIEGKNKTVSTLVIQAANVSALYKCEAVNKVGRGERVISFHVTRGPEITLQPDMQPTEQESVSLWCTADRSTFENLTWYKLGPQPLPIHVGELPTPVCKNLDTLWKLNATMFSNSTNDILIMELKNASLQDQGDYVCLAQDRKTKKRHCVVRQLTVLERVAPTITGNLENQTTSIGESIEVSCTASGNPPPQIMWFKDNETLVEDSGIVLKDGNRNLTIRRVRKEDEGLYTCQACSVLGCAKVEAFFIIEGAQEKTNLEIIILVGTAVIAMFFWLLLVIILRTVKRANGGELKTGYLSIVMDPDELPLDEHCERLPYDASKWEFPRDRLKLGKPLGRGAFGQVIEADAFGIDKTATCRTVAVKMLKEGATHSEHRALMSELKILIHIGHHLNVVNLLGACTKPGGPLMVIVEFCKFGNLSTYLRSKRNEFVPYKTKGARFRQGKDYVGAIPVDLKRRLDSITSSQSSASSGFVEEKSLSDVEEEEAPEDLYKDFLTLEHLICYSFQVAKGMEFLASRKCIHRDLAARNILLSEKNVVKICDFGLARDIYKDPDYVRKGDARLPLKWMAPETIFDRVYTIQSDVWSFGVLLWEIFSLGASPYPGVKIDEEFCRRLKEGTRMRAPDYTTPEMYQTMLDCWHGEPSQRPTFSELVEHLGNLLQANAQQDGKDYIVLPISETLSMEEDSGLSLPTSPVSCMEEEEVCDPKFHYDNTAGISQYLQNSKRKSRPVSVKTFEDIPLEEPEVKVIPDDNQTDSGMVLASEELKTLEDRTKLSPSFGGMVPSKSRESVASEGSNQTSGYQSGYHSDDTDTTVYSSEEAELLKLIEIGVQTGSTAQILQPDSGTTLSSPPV
UniProt P00533, whole entry: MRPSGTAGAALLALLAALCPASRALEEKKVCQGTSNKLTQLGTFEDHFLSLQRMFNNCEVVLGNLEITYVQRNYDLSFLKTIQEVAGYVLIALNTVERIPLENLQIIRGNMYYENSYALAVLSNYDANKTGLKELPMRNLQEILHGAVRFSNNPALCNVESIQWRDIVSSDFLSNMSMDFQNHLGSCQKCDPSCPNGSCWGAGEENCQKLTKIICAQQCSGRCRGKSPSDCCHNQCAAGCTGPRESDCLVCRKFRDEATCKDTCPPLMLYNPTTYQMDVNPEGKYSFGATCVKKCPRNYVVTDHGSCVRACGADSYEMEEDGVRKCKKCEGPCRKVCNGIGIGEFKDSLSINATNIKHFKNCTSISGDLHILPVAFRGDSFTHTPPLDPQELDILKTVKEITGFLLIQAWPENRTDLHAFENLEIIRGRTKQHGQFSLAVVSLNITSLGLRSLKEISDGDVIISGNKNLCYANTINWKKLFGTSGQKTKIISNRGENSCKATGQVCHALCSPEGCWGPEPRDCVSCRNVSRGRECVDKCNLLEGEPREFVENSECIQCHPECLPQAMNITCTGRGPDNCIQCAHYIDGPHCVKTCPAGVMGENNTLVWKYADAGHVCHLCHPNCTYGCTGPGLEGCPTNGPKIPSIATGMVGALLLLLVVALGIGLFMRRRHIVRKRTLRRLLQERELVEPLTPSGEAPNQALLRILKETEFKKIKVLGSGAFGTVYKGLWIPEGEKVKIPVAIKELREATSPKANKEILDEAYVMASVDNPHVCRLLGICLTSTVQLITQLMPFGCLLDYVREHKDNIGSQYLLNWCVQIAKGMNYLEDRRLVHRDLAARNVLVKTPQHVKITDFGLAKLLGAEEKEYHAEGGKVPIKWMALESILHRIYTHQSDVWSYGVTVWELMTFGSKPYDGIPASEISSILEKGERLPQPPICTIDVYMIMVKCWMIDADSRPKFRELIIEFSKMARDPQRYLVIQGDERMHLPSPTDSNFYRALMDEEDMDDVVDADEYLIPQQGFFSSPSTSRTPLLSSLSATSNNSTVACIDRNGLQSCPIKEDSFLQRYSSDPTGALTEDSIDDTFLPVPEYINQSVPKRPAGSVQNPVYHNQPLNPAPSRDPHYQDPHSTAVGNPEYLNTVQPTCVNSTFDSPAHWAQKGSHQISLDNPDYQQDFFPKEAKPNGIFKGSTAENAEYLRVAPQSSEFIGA

Structures are written as SMILES.

Take `Nc1ncnc2c1c(-c1ccccc1)cn2-c1ccccc1`: the values for the IC50 in assay [1], in assay [2] and in assay [3] were 500 nM, 500 nM and 3000 nM, respectively.

The IC50 is the concentration at which inhibition is half-maximal.

(Values after ChEMBL document CHEMBL1133080, “Substituted 5,7-diphenyl-pyrrolo[2,3d]pyrimidines: potent inhibitors of the tyrosine kinase c-Src” (Bioorg Med Chem Lett, 2000).)
